Assays:
[1] = tested on: coated bioactive support component (cell powder of cells expressing a mutant opd gene in latex acrylic paint); assay: treatment of Paraoxon contaminated water in reactive column with bioactive coated support component; settings: single pass through the column
[2] = target: Wild-Type OPH binding Co^2+ (Brevundimonas diminuta, UniProt P0A434); settings: Co^2+ substituted OPH; cited from earlier work

In the case of `CCOP(=O)(OCC)Oc1ccc([N+](=O)[O-])cc1`, the “Paraoxon present in the fluid converted to para-nitrophenol” value [1] is given as 90% and the kcat [2] is given as 15000^a s^−1.
